Screens (PubChem BioAssay)
XiGFP reactiv – X-chromosome reactivation activator. XiGFP mouse fibroblasts, % GFP-positive cells imaging, 3 d; cells co-treated with 5-aza-dC sensitizer; scaled so ellipticine positive control = 100%. activation, % at 7.58 µM. 360,000 compounds, 0.055% hits. AID 743238;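 active = mean normalized replicate activation at least 10% and every replicate at or above 10%; inconclusive = only one of the two criteria met; inactive = mean below 10% and not all replicates reach 10%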
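System: SV40-immortalized XiGFP fibroblast cells, line 68-5-11 / Incubation: 3-day compound exposure, then 15 min fixation at room temperature / Compound: single concentration per compound, delivered by pin transfer / Buffer or medium: DMEM plus 5-aza-dC sensitizer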
RAD54 inh – blocks human RAD54 Holliday junction branch migration; 360,000 compounds, 0.14% hits; inhibition, % at 10.4 µM; Q92698; FAM/BHQ fluorescence;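 active = mean normalized replicate activity at least 40 and at least half of replicates scoring 40 or more; inconclusive = only one of the two criteria met; inactive = mean below 40 and under half of replicates reaching 40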;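 note: inhibitors cause a drop in the FAM fluorescence signal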
E-sel inducer – induces E-selectin expression in human endothelial cells | P16581 | HUVEC E-selectin immunofluorescence imaging; normalized: neutral wells 0, TNF-alpha wells 100 | activation, % at 7.58 µM | 260,000 compounds, 0.37% hits | AID 686992;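 active = mean E-selectin-positive cell signal at least 10% of the positive control, reached in at least 60% of replicates, without over 20% cell loss; inconclusive = no rule given, readout overlaps actives, possibly toxicity-flagged; inactive = the rest, including those meeting only one limit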
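Read-out basis: % PE-positive cells; Test system: HUVEC primary endothelial cells; Technique: immunofluorescence imaging; Dosing: single-point compound dose.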
RAD52 anneal inh – blocks human RAD52 DNA annealing. recombinant RAD52 DNA annealing, FRET fluorescence. AID 651710. 360,000 compounds, 0.46% hits. P43351. inhibition, % at 18.7 µM;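 active = every replicate showing at least 50% inhibition; inconclusive = mean inhibition at least 50% but not in every replicate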
UUG fidelity – modulators of start codon recognition fidelity in yeast; AID 602363; activity score, % at 18.7 µM; S. cerevisiae UUG-firefly luciferase reporter, luminescence/redox ratio; 0.13% of 350,000 active;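 active = replicate mean at a twofold rise or more, about +100% in these data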;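 note: firefly luciferase made from a UUG start codon reports start codon fidelity; reporter light over untreated wells divided by growth signal over untreated wells; some hits fall short of that in this replicate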
Large screens that a line does not name were inactive; ! = not confirmed by another sample. An excerpt weighted towards active compounds, which were near 0.73% of everything screened.

C[C@H]1CN([C@@H](C)CO)S(=O)(=O)c2ccc(C#Cc3ccc(F)cc3)cc2O[C@H]1CN(C)CC1CC1	none
O=C(C[C@@H]1C[C@@H]2c3cc(NS(=O)(=O)c4ccc(F)cc4)ccc3O[C@@H]2[C@@H](CO)O1)N1CCc2ccccc2C1	none (no result: UUG fidelity)
CCCC#Cc1ccc2c(c1)O[C@@H](CN(C)CCC)[C@@H](C)CN([C@@H](C)CO)S2(=O)=O	E-sel inducer 85.1
O=C(NC1CCCC1)[C@H]1N[C@H]2c3ccc(-c4cccc(F)c4)c(=O)n3C[C@H]2[C@@H]1CO	RAD52 anneal inh 57.8 (no result: RAD54 inh, UUG fidelity)
O=C(NC1CCCC1)c1cccc2c1C(=O)c1ccc(/C=C/c3ccccc3)cc1S2(=O)=O	XiGFP reactiv 14.0
COc1ccc(-c2ccc3c(c2)S(=O)(=O)c2cccc(C(=O)NC4CCCC4)c2C3=O)cc1OC	none (no result: E-sel inducer)
O=C(NCc1ccccc1)c1cccc2c1C(=O)c1ccc(/C=C/c3ccccc3)cc1S2(=O)=O	XiGFP reactiv 17.8, E-sel inducer inconclusive
O=S(=O)(N[C@H]1CC[C@@H](CCn2cc(-c3cccnc3)nn2)O[C@@H]1CO)c1ccccc1	none
O=C1C[C@@](C(=O)NCCN2CCOCC2)(c2ccc([N+](=O)[O-])cc2)[C@@H](c2ccc(CO)cc2I)N1CC12CC3CC(CC(C3)C1)C2	RAD52 anneal inh 57.8 (no result: XiGFP reactiv, E-sel inducer)
CC(C(=O)NCCN1CCOCC1)c1ccc([N+](=O)[O-])cc1 (stereo unspecified)	none (no result: RAD54 inh, E-sel inducer, UUG fidelity)
Cc1ccc(S(=O)(=O)Nc2ccc3c(c2)CC(=O)N([C@@H](C)CO)C[C@@H](C)[C@@H](CN(C)Cc2ccc(Oc4ccccc4)cc2)O3)cc1	none
COc1ccc(C)cc1NC(=O)C(NCC(O)c1ccccc1)c1ccccc1 (stereo unspecified)	E-sel inducer 51.7
O=C(C[C@H]1CC[C@H]2[C@@H](COC[C@H](O)CN2S(=O)(=O)c2ccccc2)O1)Nc1ccccc1	none (no result: UUG fidelity)
C(=N\Nc1nc(N2CCOCC2)nc(N2CCOCC2)n1)/c1ccncc1	none (no result: RAD54 inh, E-sel inducer, RAD52 anneal inh, UUG fidelity)
CN(C)c1ccc(/C=C/C=N/Nc2nc(N3CCOCC3)nc(N3CCOCC3)n2)cc1	E-sel inducer 63.0
Cc1ccc(S(=O)(=O)N[C@H]2CC[C@H](CC(=O)N3CCN(c4ccccc4)CC3)O[C@@H]2CO)cc1	none
OCc1ccc(-c2nn(Cc3ccccc3)c3ccccc23)o1	E-sel inducer 117.2
COc1cc(NC(=O)COC(=O)CO/N=C(\C)c2ccc3c(c2)OCO3)cc(OC)c1OC	E-sel inducer 180.4 (no result: RAD54 inh, UUG fidelity)
Cc1ccc(COc2ccc(/C=N/O)cc2)cc1	E-sel inducer 106.6 (no result: RAD54 inh, UUG fidelity)
CS(=O)(=O)N1[C@@H]2c3ccc(C4=CCCCC4)c(=O)n3C[C@@H]2[C@@H](CO)[C@@H]1C(=O)NCc1ccncc1	none (no result: UUG fidelity)
C[C@@H](NC(=O)C[C@@H]1CC[C@@H](NC(=O)C2CCC2)[C@@H](CO)O1)c1ccccc1	none
CC(=O)Nc1ccc2c(O)cc(S(=O)(=O)O)cc2c1	none
Nc1ccc2c(O)cc(S(=O)(=O)O)cc2c1	RAD54 inh 72.6
COC(=O)c1cccnc1-n1c(=O)c2cccnc2n(Cc2cccc([N+](=O)[O-])c2)c1=O	none (no result: RAD54 inh, UUG fidelity)
COc1ccc(CCn2c(=O)c3cccnc3n(Cc3cccc([N+](=O)[O-])c3)c2=O)cc1OC	E-sel inducer 26.8 (no result: RAD54 inh, UUG fidelity)
CCCNC(=O)N1C[C@H](O)COC[C@@H]2O[C@H](CC(=O)N3CCC(Cc4ccccc4)CC3)CC[C@H]21	none (no result: UUG fidelity)
COc1ccc(NC(=O)N2CCCCN3[C@@H](CO)[C@@H](c4ccc(C#Cc5ccccc5)cc4)[C@@H]3C2)cc1	RAD52 anneal inh 96.6 (no result: XiGFP reactiv, E-sel inducer)
COc1ccc(NC(=O)N2CCCCN3[C@H](CO)[C@@H](c4ccc(C#Cc5ccccc5)cc4)[C@H]3C2)cc1	RAD52 anneal inh 69.8 (no result: XiGFP reactiv, E-sel inducer)
COc1ccc(C#Cc2ccc([C@@H]3[C@@H](CO)N4CCCCN(C(=O)Nc5ccccc5)C[C@@H]34)cc2)cc1	none
COc1ccc(NC(=O)N2CCCCN3[C@H](CO)[C@@H](c4ccc(C#Cc5ccccc5)cc4)[C@@H]3C2)cc1	RAD52 anneal inh 71.2 (no result: XiGFP reactiv, E-sel inducer)
COc1ccc(NC(=O)N2CCCCN3[C@H](CO)[C@H](c4ccc(C#Cc5ccccc5)cc4)[C@@H]3C2)cc1	none (no result: XiGFP reactiv, E-sel inducer)
CC1C=NC(S(=O)(=O)N2CC[C@@H]3[C@H](CO)N(C)c4ccc(-c5ccccc5F)cc4[C@@H]32)=N1 (stereo partly specified)	none
C[C@@H]1CN([C@H](C)CO)C(=O)c2cc(NC(=O)CCC(F)(F)F)ccc2O[C@H]1CN(C)S(=O)(=O)c1ccc(Cl)cc1	none
CC(C)NC(=O)N(C)C[C@@H]1Oc2ccc(NC(=O)CCN3CCOCC3)cc2C(=O)N([C@H](C)CO)C[C@H]1C	E-sel inducer 65.5
C[C@@H]1CN([C@H](C)CO)C(=O)c2cc(NS(=O)(=O)c3cn(C)cn3)ccc2O[C@H]1CN(C)Cc1ccncc1	E-sel inducer 92.4
C[C@@H]1CN([C@@H](C)CO)C(=O)c2cc(NC(=O)CCN3CCOCC3)ccc2O[C@H]1CN(C)Cc1ccncc1	E-sel inducer 31.5 (no result: UUG fidelity)
CC(C)NC(=O)N(C)C[C@H]1Oc2ccc(NC(=O)CCN3CCOCC3)cc2C(=O)N([C@@H](C)CO)C[C@H]1C	E-sel inducer 46.3
CCCNC(=O)[C@H]1[C@H](CO)[C@H]2Cn3c(ccc(C4=CCCC4)c3=O)[C@@H]1N2S(C)(=O)=O	none (no result: RAD52 anneal inh, UUG fidelity)
O=C(NC[C@H]1[C@H](c2ccccc2)[C@@H](CO)N1C(=O)Cc1cccnc1)C1CC1	none
O=S(=O)(O)c1cc(O)c(N=Nc2ccc(O)cc2O)c2ccccc12	E-sel inducer 65.5
CO[C@H]1CC[C@H]2CCN(C)C(=O)CCCN(C)C(=O)c3cccc(C#N)c3OC[C@H]1O2	none (no result: UUG fidelity)
COc1ccc(-n2ccc(=O)c(C(=O)O)n2)cc1	none (no result: E-sel inducer)
COc1ccc(S(=O)(=O)NN(C)C(=O)c2nn(-c3ccccc3)ccc2=O)cc1	E-sel inducer 26.7
Cc1noc(C)c1NC(=O)N(C)C[C@H]1Oc2ccc(NC(=O)Nc3ccccc3)cc2C(=O)N([C@H](C)CO)C[C@H]1C	none (no result: E-sel inducer)
O=C(NC(Cc1ccccc1)c1nc2ccccc2[nH]1)c1cccc([N+](=O)[O-])c1 (stereo unspecified)	E-sel inducer 83.2 (no result: RAD54 inh, UUG fidelity)
COc1cccc(S(=O)(=O)N2C[C@@H]3N[C@H](C2)C3c2ccc(-c3ccccc3C)cc2)c1 (stereo partly specified)	none (no result: RAD54 inh, UUG fidelity)
COc1cccc(-c2ccc(C3[C@@H]4CN(S(=O)(=O)c5cccc(OC)c5)C[C@H]3N4)cc2)c1 (stereo partly specified)	RAD52 anneal inh 70.2! (no result: RAD54 inh, UUG fidelity)
COc1ccccc1S(=O)(=O)N1C[C@@H]2N[C@H](C1)C2c1ccc(-c2ccccc2)cc1 (stereo partly specified)	none (no result: RAD54 inh, UUG fidelity)
COc1ccccc1-c1ccc(C2[C@@H]3CN(S(=O)(=O)c4ccccc4C)C[C@H]2N3)cc1 (stereo partly specified)	RAD52 anneal inh 50.8 (no result: RAD54 inh, UUG fidelity)
